system: phosphodiesterase I; details: pH 8

| Substance | remaining ratio (Remaining oligonucleotides, undegraded 10 mer vs time 0) [%] |
| --- | --- |
| 5′-d (TTT TTT TTT Xp)-3′ [oligonucleotide (12)] | 55 |
| 5′-d(TTT TTT TTT X)-3′ [oligonucleotide (5)] | 80 |
| 5′-d(TTT TTT TTT Xq)-3′ [oligonucleotide (17)] | 100 |
